Results published in patent US9283236B2, “Aldosterone induced vascular elastin production” (HUMAN MATRIX SCIENCES, LLC, priority 2008, dated 2016).

Tested on: human fetal cardiac fibroblasts
Assay: Quantitative assay of [3H]valine-labeled insoluble elastin
Format: cell-based
Settings: aldosterone 100 nmol/L and 1 μmol/L

C[C@]12CCC(=O)C=C1CC[C@@H]1[C@@H]2[C@@H](O)C[C@]2(C=O)[C@@H](C(=O)CO)CC[C@@H]12 [aldosterone]
elastin production above physiological levels: led to a further increase in elastin production
